Protein sequences, listed by entry. Tags and fused reporters are not part of them.
UniProt P01112, whole entry: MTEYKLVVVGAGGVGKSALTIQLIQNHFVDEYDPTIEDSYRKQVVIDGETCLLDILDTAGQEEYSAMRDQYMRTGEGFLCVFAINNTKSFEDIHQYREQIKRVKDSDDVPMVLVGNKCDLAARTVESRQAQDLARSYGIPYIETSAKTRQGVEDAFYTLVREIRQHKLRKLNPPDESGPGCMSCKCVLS

According to patent EP4603105A1, “PHARMACEUTICAL COMPOSITION CONTAINING CYCLIC COMPOUND HAVING SELECTIVE KRAS INHIBITORY EFFECT AGAINST HRAS AND NRAS” (CHUGAI SEIYAKU KABUSHIKI KAISHA, priority 2022, dated 2024):

These compounds were tested against HRAS wild-type protein (Homo sapiens, UniProt P01112) (assay: Binding to HRAS by surface plasmon resonance (SPR), KD and KD ratio to KRAS). Settings: ratio of KD for HRAS wild-type protein to KD for KRAS.

Compound	HRAS /KRAS
CCOCC1C(=O)NC(C(C)OCC)C(=O)N(C)CC(=O)N(C)C2CC=CCCN(C2=O)C(Cc2ccc(C)cc2)C(=O)N(C)CC(=O)NC(CCc2cc(F)c(C(F)(F)F)c(F)c2)C(=O)N2CC(C)CC2C(=O)NC2(CC(C)(C)C2)C(=O)N(C)C(C2CCCC2)C(=O)N(C)C(C(=O)N(C)CC)CC(=O)N1C (centres unmarked)	A (a compound having 10 or more and less than 20 is denoted as A)
CCCO[C@H](C)[C@@H]1NC(=O)[C@H](CC(C)C)N(C)C(=O)C[C@@H](C(=O)N(C)CC)N(C)C(=O)[C@H](C2CCCC2)N(C)C(=O)C2(CC(C)(C)C2)NC(=O)[C@@H]2C[C@H](C)CN2C(=O)[C@H](CCc2cc(F)c(C(F)(F)F)c(F)c2)NC(=O)CN(C)C(=O)[C@H](Cc2ccc(C)cc2)N2CC/C=C\C[C@@H](C2=O)N(C)C(=O)CN(C)C1=O	A (a compound having 10 or more and less than 20 is denoted as A)

Same assay, conditions: ratio of KD with respect to HRAS wild-type protein to KD with respect to KRAS

Compound	HRAS /KRAS
CCO[C@@H]1C[C@H]2C(=O)NC3(CCC3)C(=O)N(C)[C@@H](C3CCCC3)C(=O)N(C)[C@H](C(=O)N3CCOCC3)CC(=O)N(C)[C@@H](CC3CCCC3)C(=O)N[C@@H]([C@@H](C)CC)C(=O)N(C)CC(=O)N(C)[C@H]3C/C=C\CCN(C3=O)[C@@H](Cc3ccc(C)cc3)C(=O)N(C)CC(=O)N[C@@H](CCc3cc(F)c(C(F)(F)F)c(F)c3)C(=O)N2C1	A (a compound having 10 or more and less than 20 is denoted as A)
CCOC1CC2C(=O)NC3(CCC3)C(=O)N(C)C(C3CCCC3)C(=O)N(C)C(C(=O)N3CCOCC3)CC(=O)N(C)C(Cc3cccc(C#N)c3)C(=O)NC(C(C)CC)C(=O)N(C)CC(=O)N(C)C3CCCCCN(C3=O)C(Cc3ccc(F)cc3)C(=O)N(C)CC(=O)NC(CCc3cc(F)c(C(F)(F)F)c(F)c3)C(=O)N2C1 (centres unmarked)	B (a compound having 3 or more and less than 10 is denoted as B)
CCO[C@@H]1C[C@H]2C(=O)NC3(CCCC3)C(=O)N(C)[C@@H](C3CCCC3)C(=O)N(C)[C@H](C(=O)N(C)C)CC(=O)N(C)[C@@H](C)C(=O)N[C@@H]([C@@H](C)CC)C(=O)N(C)CC(=O)N(C)[C@H]3C/C=C\CCN(C3=O)[C@@H](CC3CCCCC3)C(=O)N(C)CC(=O)N[C@@H](CCc3cc(F)c(C(F)(F)F)c(F)c3)C(=O)N2C1	A (a compound having 10 or more and less than 20 is denoted as A)
CCOC1CC2C(=O)NC3(CCC3)C(=O)N(C)C(C3CCCC3)C(=O)N(C)C(C(=O)N3CCOCC3)CC(=O)N(C)C(CC3CCCCC3)C(=O)NC(C(C)CC)C(=O)N(C)CC(=O)N(C)C3CC=CCCN(C3=O)C(Cc3ccc(C(F)(F)F)cc3)C(=O)N(C)CC(=O)NC(CCc3cc(F)c(C(F)(F)F)c(F)c3)C(=O)N2C1 (centres unmarked)	A (a compound having 10 or more and less than 20 is denoted as A)
CCO[C@@H]1C[C@H]2C(=O)NC3(CCC3)C(=O)N(C)[C@@H](C3CCCC3)C(=O)N(C)[C@H](C(=O)N3CCCC3)CC(=O)N(C)[C@@H](CC3CCCC3)C(=O)N[C@@H]([C@@H](C)CC)C(=O)N(C)CC(=O)N(C)[C@H]3C/C=C\CCN(C3=O)[C@@H](Cc3ccc(C)cc3)C(=O)N(C)CC(=O)N[C@@H](CCc3cc(F)c(C(F)(F)F)c(F)c3)C(=O)N2C1	A (a compound having 10 or more and less than 20 is denoted as A)
CC[C@H](C)[C@@H]1NC(=O)[C@H](CC)N(C)C(=O)C[C@@H](C(=O)N2CCOCC2)N(C)C(=O)[C@H](C2CCCC2)N(C)C(=O)C2(CCCC2)NC(=O)[C@@H]2CCCN2C(=O)[C@H](CCc2cc(F)c(C(F)(F)F)c(F)c2)NC(=O)CN(C)C(=O)[C@H](Cc2ccc(C(F)(F)F)cc2)N2C[C@H](C)CC[C@@H](C2=O)N(C)C(=O)CN(C)C1=O	B (a compound having 3 or more and less than 10 is denoted as B)
CCO[C@@H]1C[C@H]2C(=O)NC3(CCOCC3)C(=O)N(C)[C@@H](C3CCCC3)C(=O)N(C)[C@H](C(=O)N(C)C)CC(=O)N(C)[C@@H](CC)C(=O)N[C@@H]([C@@H](C)CC)C(=O)N(C)CC(=O)N(C)[C@H]3C/C=C\CCN(C3=O)[C@@H](Cc3ccc(C(F)(F)F)cc3)C(=O)N(C)CC(=O)N[C@@H](CCc3cc(F)c(C(F)(F)F)c(F)c3)C(=O)N2C1	A (a compound having 10 or more and less than 20 is denoted as A)
CC[C@H](C)[C@@H]1NC(=O)[C@H](CC(C)C)N(C)C(=O)C[C@@H](C(=O)N2CCOCC2)N(C)C(=O)[C@H](C2CCCC2)N(C)C(=O)C2(CCC2)NC(=O)[C@@H]2CCCN2C(=O)[C@H](CCc2ccc(C(F)(F)F)c(Cl)c2)NC(=O)CN(C)C(=O)[C@H](Cc2ccc(C(F)(F)F)cc2)N2C[C@H](C)CC[C@@H](C2=O)N(C)C(=O)[C@@H]2CCN2C1=O	B (a compound having 3 or more and less than 10 is denoted as B)
CCO[C@@H]1C[C@H]2C(=O)NC3(CCC3)C(=O)N(C)[C@@H](C3CCCC3)C(=O)N(C)[C@H](C(=O)N(C)C)CC(=O)N(C)[C@@H](CC3CC3)C(=O)N[C@@H]([C@@H](C)CC)C(=O)N(C)CC(=O)N(C)[C@H]3C/C=C\CCN(C3=O)[C@@H](Cc3ccc(F)cc3C)C(=O)N(C)CC(=O)N[C@@H](CCc3cc(F)c(Cl)c(F)c3)C(=O)N2C1	B (a compound having 3 or more and less than 10 is denoted as B)
CC[C@H](C)[C@@H]1NC(=O)[C@H](CC)N(C)C(=O)C[C@@H](C(=O)N2CCOCC2)N(C)C(=O)[C@H](C2CCCC2)N(C)C(=O)C2(CCCC2)NC(=O)[C@@H]2CCCN2C(=O)[C@H](CCc2ccc(C(F)(F)F)c(Cl)c2)NC(=O)CN(C)C(=O)[C@H](Cc2ccc(C(F)(F)F)cc2)N2C[C@H](C)CC[C@@H](C2=O)N(C)C(=O)CN(C)C1=O	B (a compound having 3 or more and less than 10 is denoted as B)
CCO[C@@H]1C[C@H]2C(=O)NC3(CCC3)C(=O)N(C)[C@@H](C3CCCC3)C(=O)N(C)[C@H](C(=O)N3CCOCC3)CC(=O)N(C)[C@@H](Cc3cccs3)C(=O)N[C@@H]([C@@H](C)CC)C(=O)N(C)CC(=O)N(C)[C@H]3CCCCCN(C3=O)[C@@H](Cc3ccc(C(F)(F)F)cc3)C(=O)N(C)CC(=O)N[C@@H](CCc3cc(F)c(C(F)(F)F)c(F)c3)C(=O)N2C1	B (a compound having 3 or more and less than 10 is denoted as B)
CCO[C@@H]1C[C@H]2C(=O)NC3(CCC3)C(=O)N(C)[C@@H](C(CC)CC)C(=O)N(C)[C@H](C(=O)N(C)C)CC(=O)N(C)[C@@H](CC3CC3)C(=O)N[C@@H]([C@@H](C)CC)C(=O)N(C)CC(=O)N(C)[C@H]3C/C=C\CCN(C3=O)[C@@H](CC3CCC(F)(F)CC3)C(=O)N(C)CC(=O)N[C@@H](CCc3cc(F)c(C(F)(F)F)c(F)c3)C(=O)N2C1	A (a compound having 10 or more and less than 20 is denoted as A)
CCO[C@@H]1C[C@H]2C(=O)NC3(CCC3)C(=O)N(C)[C@@H](C3CCCC3)C(=O)N(C)[C@H](C(=O)N3CCOCC3)CC(=O)N(C)[C@@H](Cc3ccccc3C#N)C(=O)N[C@@H]([C@@H](C)CC)C(=O)N(C)CC(=O)N(C)[C@H]3CCCCCN(C3=O)[C@@H](Cc3ccc(C(F)(F)F)cc3)C(=O)N(C)CC(=O)N[C@@H](CCc3cc(F)c(C(F)(F)F)c(F)c3)C(=O)N2C1	B (a compound having 3 or more and less than 10 is denoted as B)
CCO[C@@H]1C[C@H]2C(=O)NC3(CC(C)(C)C3)C(=O)N(C)[C@@H](C3CCCC3)C(=O)N(C)[C@H](C(=O)N(C)C)CC(=O)N(C)[C@@H](CC)C(=O)N[C@@H]([C@@H](C)CC)C(=O)N(C)CC(=O)N(C)[C@H]3C/C=C\CCN(C3=O)[C@@H](Cc3ccc(C(F)(F)F)cc3)C(=O)N(C)CC(=O)N[C@@H](CCc3cc(F)c(C(F)(F)F)c(F)c3)C(=O)N2C1	A (a compound having 10 or more and less than 20 is denoted as A)
CCCCCCC1C(=O)NC(C(C)CC)C(=O)N(C)CC(=O)N(C)C2CC=CCCN(C2=O)C(Cc2ccc(C(F)(F)F)cc2)C(=O)N(C)CC(=O)NC(CCc2ccc3sccc3c2)C(=O)N2CC(OCC)CC2C(=O)NC2(CCC2)C(=O)N(C)C(C(CC)CC)C(=O)N(C)C(C(=O)N(C)C)CC(=O)N1C (centres unmarked)	A (a compound having 10 or more and less than 20 is denoted as A)
CCCCN1CC(=O)NC2(CCC2)C(=O)N(C)[C@@H](C2CCCC2)C(=O)N(C)[C@H](C(=O)N(C)C)CC(=O)N(C)[C@@H](CC)C(=O)N[C@@H]([C@@H](C)CC)C(=O)N(C)CC(=O)N(C)[C@H]2C/C=C\CCN(C2=O)[C@@H](Cc2ccc(C(F)(F)F)cc2)C(=O)N(C)CC(=O)N[C@@H](CCc2cc(F)c(C(F)(F)F)c(F)c2)C1=O	A (a compound having 10 or more and less than 20 is denoted as A)
CCO[C@@H]1C[C@H]2C(=O)NC3(CCC3)C(=O)N(C)[C@@H](C3CCCC3)C(=O)N(C)[C@H](C(=O)N(C)C)CC(=O)N(C)[C@@H](CC(C)C)C(=O)N[C@@H]([C@@H](C)CC)C(=O)N(C)CC(=O)N(C)[C@H]3C/C=C\CCN(C3=O)[C@@H](CC3CCC(F)(F)CC3)C(=O)N(C)CC(=O)N[C@@H](CCc3cc(F)c(C(F)(F)F)c(F)c3)C(=O)N2C1	A (a compound having 10 or more and less than 20 is denoted as A)
CCCC[C@H]1C(=O)N[C@@H]([C@@H](C)CC)C(=O)N(C)CC(=O)N(C)[C@H]2C/C=C\CCN(C2=O)[C@@H](Cc2ccc(C(F)(F)F)cc2)C(=O)N(C)CC(=O)N[C@@H](CCc2cc(F)c(C(F)(F)F)c(F)c2)C(=O)N2C[C@H](OCC)C[C@H]2C(=O)NC2(CCC2)C(=O)N(C)[C@@H](C2CCCC2)C(=O)N(C)[C@H](C(=O)N(C)C)CC(=O)N1C	A (a compound having 10 or more and less than 20 is denoted as A)
CCOC1CC2C(=O)NC3(CCC3)C(=O)N(C)C(C3CCCC3)C(=O)N(C)C(C(=O)N3CCOCC3)CC(=O)N(C)C(Cc3ccc(C#N)cc3)C(=O)NC(C(C)CC)C(=O)N(C)CC(=O)N(C)C3CCCCCN(C3=O)C(Cc3ccc(C(F)(F)F)cc3)C(=O)N(C)CC(=O)NC(CCc3cc(F)c(C(F)(F)F)c(F)c3)C(=O)N2C1 (centres unmarked)	B (a compound having 3 or more and less than 10 is denoted as B)
CCO[C@@H]1C[C@H]2C(=O)NC3(CCC3)C(=O)N(C)[C@@H](C3CCCC3)C(=O)N(C)[C@H](C(=O)N(C)C)CC(=O)N(C)[C@@H](CC3CCCC3)C(=O)N[C@@H]([C@@H](C)CC)C(=O)N(C)CC(=O)N(C)[C@H]3C/C=C\CCN(C3=O)[C@@H](Cc3ccc(C)cc3)C(=O)N(C)CC(=O)N[C@@H](CCc3cc(F)c(C(F)(F)F)c(F)c3)C(=O)N2C1	B (a compound having 3 or more and less than 10 is denoted as B)
CCO[C@@H]1C[C@H]2C(=O)NC3(CCC3)C(=O)N(C)[C@@H](C3CCCC3)C(=O)N(C)[C@H](C(=O)N(C)C)CC(=O)N(C)[C@@H](CC3CC3)C(=O)N[C@@H]([C@@H](C)CC)C(=O)N(C)CC(=O)N(C)[C@H]3C/C=C\CCN(C3=O)[C@@H](Cc3ccc(F)cc3)C(=O)N(C)CC(=O)N[C@@H](CCc3ccc4sccc4c3)C(=O)N2C1	B (a compound having 3 or more and less than 10 is denoted as B)
